In experiment [1] the test system is ascitic fluid type liver cancer H22. Kind of experiment: Survival of mice with transplanted ascitic fluid type liver cancer H22. The experiment is classed as in vivo, BALB/c mice. To be noted: controls: rhIL-2, rmIFN-γ 3 × 10^5 IU/kg, cyclophosphamide 20 mg/kg; saline 26.2 ± 6.8. The procedure: Intraperitoneal injection, once per day. […] The cyclophosphamide groups were treated on the next day after transplanting the cancer cells. Treatment of all groups with testing substance lasted for 30 days or until the animal died unless otherwise specified.
Stock H22 cells were incubated in DMEM/F12 medium supplemented with 10% fetal bovine serum, 37° C./5% CO2 for 72 hrs, then washed 3-4 times with Hank's solution at room temperature. Adjust cell concentration to 1-2×10^9 per litre with Hank's solution. 0.2 ml of the cell suspension was implanted to the abdominal cavity of several BALB/c mice for 6-8 days. The mice were killed by cervical vertebra dislocation. Ascitic fluid of the mice was collected aseptically and the cell concentration adjusted to 1×10^6 per ml with Hank's solution. 0.2 ml of the cell suspension was implanted into the abdominal cavity of healthy mice to generate the H22 carrying mouse model for ascitic fluid type liver cancer. Administration of test substance started as described in section Method 1. Survival data of the mice was recorded. If the animal survived longer than the experiment, the survival days was recorded as the duration of the experiment. […] The survival index was calculated according to the following formula: Survival index=(mean survival days in treatment group−mean survival days of control group)÷mean survival days of control group×100% 4. […]

Another experiment has as its system T lymphocyte. The experiment in a line: T lymphocyte transformation test (ConA-stimulated spleen cells of treated mice, MTT). The experiment is classed as in vivo, BALB/c mice. As to conditions: healthy mice, saline 1.3 ± 0.1. The procedure:
The above substances were all dissolved in 0.5 ml saline and injected intraperitoneal (i.p.) for 15 continuous days, once per day.
The BALB/c mice were randomly divided into the peptide, IFN, IL-2, and saline groups. Ten mice per group. The day after the last test substance administration, the mice were sacrificed by cervical dislocation. The spleen was isolated aseptically and manually dispersed in cold D-Hank's solution using an injection needle. The dispersed cell suspension was further sieved through a 100 gauge 150 μm diameter stainless steel sieve. After centrifugation at 200 g for 10 minutes, the supernatant was discarded. The cell pellet was re-suspended in 10 volume of Tris-NH4Cl buffer and then kept standing still for 10 minutes at room temperature. The suspended cells were collected by centrifugation at 150 g for 10 minutes. The cells were washed 2-4 times with cold D-Hank's solution by re-suspending and collecting by centrifugation with condition as described above. The washed cells were then diluted to the desired cell densities by RPMI-1640 culture medium, containing 10% fetal bovine serum.
Spleen cells of density 1×10^6/ml were placed onto a 96 wells cell culture plate, 100 μL/well, three parallel wells each of the assay sample and control sample per mouse. To the assay wells, 100 μl/well ConA of 100 μg/ml in RPMI-1640 was added, and […] plain RPMI-1640 was used for the controls. The cells were incubated for 66 hrs at 37° C., 5% CO2. The cells were then pelleted by centrifugation at 150 g for 10 minutes. The supernatant was collected and stored at −20° C. for cytokines IL-2 and IFN determination.
50 μl/well MTT of 1 mg/ml in RPMI-1640 was added to the cell pellet and the cells re-suspended by shaking for 2 minutes. The incubation was continued for 4 hours. The supernatant was discarded after centrifugation at 150 g for 10 minutes. 120 μl 40 mM HCl-2-propanol was added to the cell pellet and shaken for 3 minutes. […]
Each mouse formed three assay wells and three control wells. The Stimulation Index (SI) of each mouse was obtained by first deriving the average OD of the three parallel wells, then dividing the value of the assay wells by the control wells.

The test system of experiment [2] is Sheep red blood cells (SRBC). Kind of experiment: Humoral immunity (SRBC hemolysis index) of mice bearing transplanted B16 melanoma. Also on record: key: index = (OD540 sample ÷ reference OD540) × 500. The experiment is classed as in vivo, C57BL/6 mice. To be noted: controls: rhIL-2, rmIFN-γ 3 × 10^5 IU/kg, cyclophosphamide 20 mg/kg, saline 19.0 ± 9.1. How it is done: Intraperitoneal injection, once per day. […] Treatment of all groups with testing substance lasted for 30 days or until the animal died unless otherwise specified.
Stock B16 mouse melanoma cells were incubated in DMEM/F12 medium supplemented with 10% fetal bovine serum, 37° C./5% CO2 for 72 hrs, then washed 3-4 times with Hank's solution. The cell concentration was adjusted to 1×10^5 per ml with Hank's solution and 0.1 ml of the cell suspension was injected via the tail vein into the testing mice to generate the B16 melanoma bearing animal model. Treatment with test substance started as described in section Method 1.
Sheep red blood cells (SRBC) were prepared by collecting blood from the cervical vein and put into a sterile flask with glass beads. The flask was shaken for 3 minutes and the blood then mixed with Alsever solution (glucose 2.05 g, NaCl 0.4 g, […] 0.8 g, adjust to 100 ml with distilled water) and stored at 4° C. Immediately before use, samples were centrifuged at 130 g, 5 minutes to collect the SRBC. The cells were washed two times by re-suspension and centrifugation in normal saline. […]
Reference OD540 nm was obtained by mixing 0.25 ml SRBC suspension with Drabkin solution to 4 ml and placed at room temperature for 10 minutes before OD540 nm was taken. […] The Pathological Changes were Recorded, and the Numbers of Melanoma Lung Metastasis Foci Were Counted. […]

For “IL-2: recombinant human IL (rhIL)-2, Shanghai Huaxin Biotech Inc.; positive control”, the Survival days in experiment [1] turned out to be 13.6 ± 0.5 days. Also, the “X ± SD (stimulation index)” value with T lymphocyte (peptide 0.5 μg/kg/day i.p. 15 days (IFN-γ, IL-2 3×10^5 IU/kg/day)) was determined as 1.6 ± 0.1; in the experiment with T lymphocyte (peptide 5 μg/kg/day i.p. 15 days (IFN-γ, IL-2 3×10^5 IU/kg/day)) it was 1.6 ± 0.1; in the experiment on T lymphocyte (peptide 50 μg/kg/day i.p. 15 days (IFN-γ, IL-2 3×10^5 IU/kg/day)), 1.8 ± 0.2; with T lymphocyte (peptide 500 μg/kg/day i.p. 15 days (IFN-γ, IL-2 3×10^5 IU/kg/day)), 1.7 ± 0.2. The Hemolysis index in experiment [2] worked out at 49.3 ± 24.7.

The record behind these values is patent US20060167229A1, “Biologically active peptide conjugates” (priority 2002, published 2006).
